Experimental data taken from US7795278B2 (sanofi-aventis Deutschland GmbH, priority 2004, dated 2010).

Sequences of proteins named here, by UniProt entry; tags and fusion partners are left off.
UniProt P09874, whole entry: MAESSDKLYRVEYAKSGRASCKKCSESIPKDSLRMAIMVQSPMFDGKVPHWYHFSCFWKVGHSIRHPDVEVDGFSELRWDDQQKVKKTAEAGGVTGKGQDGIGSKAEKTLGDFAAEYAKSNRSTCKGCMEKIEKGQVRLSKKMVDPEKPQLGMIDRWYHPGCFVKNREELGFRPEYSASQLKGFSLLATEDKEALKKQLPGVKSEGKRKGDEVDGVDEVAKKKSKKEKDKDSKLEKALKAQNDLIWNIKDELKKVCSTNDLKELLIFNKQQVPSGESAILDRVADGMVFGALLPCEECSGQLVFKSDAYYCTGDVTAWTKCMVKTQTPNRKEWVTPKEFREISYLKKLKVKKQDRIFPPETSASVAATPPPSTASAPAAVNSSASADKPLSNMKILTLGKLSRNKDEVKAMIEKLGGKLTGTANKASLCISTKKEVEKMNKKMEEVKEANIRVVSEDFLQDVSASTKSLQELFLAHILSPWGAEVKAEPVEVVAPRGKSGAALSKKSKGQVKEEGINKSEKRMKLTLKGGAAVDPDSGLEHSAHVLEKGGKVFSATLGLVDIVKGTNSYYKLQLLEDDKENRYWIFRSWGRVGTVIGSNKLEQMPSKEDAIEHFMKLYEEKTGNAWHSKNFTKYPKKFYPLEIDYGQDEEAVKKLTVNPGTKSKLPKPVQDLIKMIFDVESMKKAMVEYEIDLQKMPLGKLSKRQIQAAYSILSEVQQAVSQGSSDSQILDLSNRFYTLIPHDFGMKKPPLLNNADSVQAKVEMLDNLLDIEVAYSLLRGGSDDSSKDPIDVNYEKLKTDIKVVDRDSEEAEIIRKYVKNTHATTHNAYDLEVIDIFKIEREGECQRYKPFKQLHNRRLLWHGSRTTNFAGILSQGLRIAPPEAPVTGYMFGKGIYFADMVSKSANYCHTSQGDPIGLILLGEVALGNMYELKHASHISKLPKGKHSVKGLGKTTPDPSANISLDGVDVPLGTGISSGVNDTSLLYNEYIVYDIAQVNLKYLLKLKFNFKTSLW

The compounds below were run against recombinantly expressed human PARP-1 enzyme (Homo sapiens, UniProt P09874) (assay: PARP enzyme assay (half-maximum inhibitor concentration)). Conditions: DNA-activated PARP-1, 200 μM NAD, tritium-labeled NAD incorporation, room temperature, 1 hour, pH 8.0.
Type: biochemical
Experimental: Pharmacological Investigations PARP Enzyme Assay
The half-maximum inhibitor concentration is determined by incubating the substances to be tested with the DNA-activated, recombinantly expressed and purified PARP-1 enzyme. Specifically, various concentrations of the test substance are incubated in 50 μl of reaction solution, which contains 50 mM Tris, 5 mM MgCl2, 1 mM DTT, 200 μM NAD, 0.1 mCi/ml tritium-labeled NAD, 0.1 mg/ml DNA, 0.1 mg/ml histones, 2 μg/ml recombinantly expressed human PARP-1 enzyme, pH=8.0, at room temperature for 1 hour. The reaction is stopped by adding 150 μl of 20% trichloroacetic acid, and the radiolabeled protein constituents are precipitated. After incubation on ice for 10 minutes, the labeled, insoluble constituents are separated off through a glass fiber filter and, after washing with 20% trichloroacetic acid three times, the radioactivity incorporated by the PARP-1 enzyme is measured by radioluminescence. Consideration of the incorporation rates determined in this way as a function of the concentration of the test substance results in the half-maximum inhibitor concentration (IC50) as the concentration of the test substance which reduces the incorporation rate to half the maximum value attainable (incubation without inhibitor).
IC-50 values were determined in this way for the following compounds: […]
“N-[2-(4-pyridinecarbamoylaminoethyl)]-5-(1-oxo-1,2,5,6,7,8-hexahydroisoquinolin-4-yl)-nicotinamide [Example 31]” gave an IC50 of 4.8 µM. Work on “N-[(4-nitrobenzoylamino)methyl]-5-(1-oxo-1,2,5,6,7,8-hexahydroisoquinolin-4-yl)nicotinamide [Example 30]” yielded an IC50 of 3.35 µM. “N-[2-(4-nitrophenyl)ethyl]-5-(1-oxo-1,2,5,6,7,8-hexahydroisoquinolin-4-yl)nicotinamide [Example 29]” was tested, and the IC50 was 0.56 µM. In the case of `CN1CCCC1CCNCc1ccc(-c2c[nH]c(=O)c3c2CCCC3)o1` (stereo not shown) [Example 60, 4-(5-{[2-(1-methylpyrrolidin-2-yl)-ethylamino]methyl}furan-2-yl)-5,6,7,8-tetrahydro-2H-isoquinolin-1-one], the IC50 is reported as 0.56 µM.
